Antibody variant affinities, Ab-14 heavy chain, assay B

All variants were tested on one target, the spike HR2 peptide PDVDLGDISGINAS (SARS-CoV-2).

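The parent was found by panning a naive human phage display library on the peptide. Designed CDR sequences, proposed from the first random library and measured here. Several design methods are mixed in this list. The assay is AlphaSeq: two haploid yeast populations carry antibody and antigen on their surface. Mating (16 h, 30 °C) was followed by selection of diploids and sequencing of their barcodes. Each replicate has its own calibration line, from reference interactions of the BCL2 family. Each pool was mated in six replicate cultures.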

The variants keep the light chain, the linker and the frameworks of Ab-14 (scFv order VH, a 15-residue (Gly4Ser)3 linker, VL).
VH: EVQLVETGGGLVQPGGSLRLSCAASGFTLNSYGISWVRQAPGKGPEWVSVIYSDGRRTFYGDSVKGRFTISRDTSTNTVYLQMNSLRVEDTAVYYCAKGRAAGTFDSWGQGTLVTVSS
VL: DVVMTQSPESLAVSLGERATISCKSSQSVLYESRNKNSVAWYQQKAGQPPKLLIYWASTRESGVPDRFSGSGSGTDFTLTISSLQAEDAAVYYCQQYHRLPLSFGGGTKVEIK

Each variant's VH is given in full.
Scale: log10 of Kd in nM, estimated from mating counts; low values are strong binders.
A mean of the replicates is given; it leaves out those without a signal.
"nd" means that the variant was in the library but no mating with the target was seen in that replicate; the authors take this as a sign of poor binding, and no number exists.
Order: sorted from the lowest average up, undetected variants last.
Three control strains display no target. For all heavy chain designs, 1% of the pairings with them gave a signal, with a median of 2.08 and one signal in twenty below 0.84, so weak values seen in few replicates may be background.

| VH | log10 Kd (nM) by replicate | mean log10 Kd (nM) |
|---|---|---|
| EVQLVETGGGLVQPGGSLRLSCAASGFDLDEYGISWVRQAPGKGPEWVSVIYADGMRTAYSDSVKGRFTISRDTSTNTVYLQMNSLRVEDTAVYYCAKGENAGTFDLWGQGTLVTVSS | -0.56 / -0.47 / -0.62 / -1.14 / -0.93 / -0.67 | -0.73 |
| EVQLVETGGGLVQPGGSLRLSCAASGFDLDEYGISWVRQAPGKGPEWVSVIYADGMRTAYADSVKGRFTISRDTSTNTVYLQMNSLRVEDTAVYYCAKGEVAGTFDTWGQGTLVTVSS | -0.10 / -0.61 / -0.73 / -0.68 / -0.81 / -0.57 | -0.59 |
| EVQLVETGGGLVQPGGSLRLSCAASGFSLNSYGISWVRQAPGKGPEWVSVIYSDGRRTFYADSVKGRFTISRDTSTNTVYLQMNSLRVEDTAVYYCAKGWVAGTFDSWGQGTLVTVSS | 0.46 / -0.39 / -0.26 / -0.81 / -0.77 / 0.18 | -0.26 |
| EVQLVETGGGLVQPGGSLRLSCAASGFSLNSYGISWVRQAPGKGPEWVSVIYSDGRRTFYDDSVKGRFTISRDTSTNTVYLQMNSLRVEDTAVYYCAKGMAAGTFDSWGQGTLVTVSS | -0.03 / nd / 0.28 / 0.57 / -0.09 / -0.30 | 0.09 |
| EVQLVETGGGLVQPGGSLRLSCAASGFDLNEYGISWVRQAPGKGPEWVSVIYADGRRTFYADSVKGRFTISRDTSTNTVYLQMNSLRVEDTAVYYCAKGEVGGTFDSWGQGTLVTVSS | -0.01 / 0.09 / 0.44 / 0.16 / 0.05 / 0.03 | 0.13 |
| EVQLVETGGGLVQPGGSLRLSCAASGFDLNEYGISWVRQAPGKGPEWVSVIYADGTRTAYADSVKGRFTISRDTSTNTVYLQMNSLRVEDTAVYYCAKGQNAGTFDVWGQGTLVTVSS | 1.27 / -0.84 / 0.44 / -0.15 / nd / 0.07 | 0.16 |
| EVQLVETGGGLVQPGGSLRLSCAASGFALNEYGISWVRQAPGKGPEWVSVIYSDGRRTFYGDSVKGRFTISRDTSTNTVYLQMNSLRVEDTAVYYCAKGRNAGTFDSWGQGTLVTVSS | 0.24 / 0.32 / 0.17 / 0.11 / -0.06 / 0.28 | 0.18 |
| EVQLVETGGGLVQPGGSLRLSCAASGFDLNSYGISWVRQAPGKGPEWVSVIYSDGRRTFYGDSVKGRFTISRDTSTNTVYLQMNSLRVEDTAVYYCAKGRTAGTFDFWGQGTLVTVSS | 0.84 / 0.80 / 0.80 / 0.98 / 0.71 / 1.24 | 0.90 |
| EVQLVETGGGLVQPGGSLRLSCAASGFELNSYGISWVRQAPGKGPEWVSVIYSDGRRTFYADKVKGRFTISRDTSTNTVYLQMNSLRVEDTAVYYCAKGKTAGTFDSWGQGTLVTVSS | 0.19 / 1.44 / 0.64 / 0.25 / 1.14 / 1.94 | 0.93 |
| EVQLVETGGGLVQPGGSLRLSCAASGFTLNSYGISWVRQAPGKGPEWVSVIYSDGRRTFYTDSVKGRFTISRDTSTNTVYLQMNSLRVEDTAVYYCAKGMNAGTFDSWGQGTLVTVSS | 1.22 / 0.29 / 0.49 / 1.45 / 1.31 / 0.98 | 0.95 |
| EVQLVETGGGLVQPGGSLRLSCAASGFTLNSYGISWVRQAPGKGPEWVSVIYSDGRRTFYADSVKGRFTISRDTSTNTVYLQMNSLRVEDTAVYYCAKGKAAGTFDKWGQGTLVTVSS | 0.81 / 0.23 / nd / 0.81 / 1.67 / 1.66 | 1.03 |
| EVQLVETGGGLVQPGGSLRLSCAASGFTLNMYGISWVRQAPGKGPEWVSVIYSDGRRQFYSDSVKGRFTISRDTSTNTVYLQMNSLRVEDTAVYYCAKGRAAGNFDSWGQGTLVTVSS | nd / nd / 3.18 / nd / nd / nd | 3.18 |
| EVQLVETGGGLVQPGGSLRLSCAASGFTLNEYGISWVRQAPGKGPEWVSVIYSDGRRTFYADSVKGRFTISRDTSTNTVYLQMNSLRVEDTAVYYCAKGRIAGTFDSWGQGTLVTVSS | nd / nd / nd / nd / nd / nd | nd |
| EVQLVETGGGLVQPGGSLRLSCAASGFHLNDYGISWVRQAPGKGPEWVSVIYADGRRTFYGDSVKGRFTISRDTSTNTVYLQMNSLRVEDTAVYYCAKGYAAGTSDLWGQGTLVTVSS | nd / nd / nd / nd / nd / nd | nd |
| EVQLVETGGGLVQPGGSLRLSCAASGFGLDEYGISWVRQAPGKGPEWVSVIYADGSRVFYADTVKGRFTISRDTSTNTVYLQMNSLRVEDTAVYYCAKGLLGILKVVWGQGTLVTVSS | nd / nd / nd / nd / nd / nd | nd |
| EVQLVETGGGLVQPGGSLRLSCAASGFTLNSYGISWVRQAPGKGPEWVSVIYSDGNRTFYGDAVKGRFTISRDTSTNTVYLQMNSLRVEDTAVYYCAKGREAGAWDQWGQGTLVTVSS | nd / nd / nd / nd / nd / nd | nd |
| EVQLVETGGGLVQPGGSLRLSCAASGFRLNSYGISWVRQAPGKGPEWVSVIYSDGRRTFYDDSVKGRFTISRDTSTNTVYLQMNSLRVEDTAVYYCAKGQTAGTFDSWGQGTLVTVSS | nd / nd / nd / nd / nd / nd | nd |
| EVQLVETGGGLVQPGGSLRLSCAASGFDLNEYGISWVRQAPGKGPEWVSVIYADGLRTAYIDEVKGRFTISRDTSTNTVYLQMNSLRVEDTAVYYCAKGKGDVIVGHWGQGTLVTVSS | nd / nd / nd / nd / nd / nd | nd |
| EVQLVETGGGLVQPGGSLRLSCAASGFDINEYGISWVRQAPGKGPEWVSVIYADGRRTFYTDSVKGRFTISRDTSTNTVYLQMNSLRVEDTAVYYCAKGGNAGTFDTWGQGTLVTVSS | nd / nd / nd / nd / nd / nd | nd |
| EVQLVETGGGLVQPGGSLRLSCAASGFSLNSYGISWVRQAPGKGPEWVSVIYSDGRRTFYSDSVKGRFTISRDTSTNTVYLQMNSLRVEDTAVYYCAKGRAGGKFDSWGQGTLVTVSS | nd / nd / nd / nd / nd / nd | nd |

The closing 2 entries, repeated:

VH	log10 Kd (nM) by replicate	mean log10 Kd (nM)
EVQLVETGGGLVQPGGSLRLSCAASGFDINEYGISWVRQAPGKGPEWVSVIYADGRRTFYTDSVKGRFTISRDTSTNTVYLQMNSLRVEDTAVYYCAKGGNAGTFDTWGQGTLVTVSS	nd / nd / nd / nd / nd / nd	nd
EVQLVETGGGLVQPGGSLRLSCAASGFSLNSYGISWVRQAPGKGPEWVSVIYSDGRRTFYSDSVKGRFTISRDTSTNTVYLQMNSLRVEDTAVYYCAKGRAGGKFDSWGQGTLVTVSS	nd / nd / nd / nd / nd / nd	nd

Values of this round are not directly comparable with the first-round values of the same sequences.
The authors' rule: three or more of the six replicates give a measured affinity, fewer mean a poor binder.
The parent sequence was in this pool as ten entries: three were never detected, three once, and four in most replicates, with averages from 0.34 to 2.37.

Values reported by Li et al. 2023, doi:10.1038/s41467-023-39022-2 (FLAb copy).